Only a part is listed here, and it is no random draw. Some of these compounds have results that are not shown, active ones among them. Active and inactive are the calls of the source.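 Rule for the calls: active = interference check ratio from 0.5 to 1.5 plus GFP to RFP signal ratio inhibition reaching or exceeding a fixed threshold (cut at about 30% in these data, passing the limit was not always enough); inactive = the rest.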
Assay: gst-4 reporter inhibition in live C. elegans – whole organism, uHTS, GFP/RFP fluorescence ratio, strain VP596, SKN-1 inhibitor project, primary screen (AID 624304)
Conditions: C. elegans VP596 Pgst-4::GFP/RFP ratio, acrylamide-induced, 24 h; at 21.8 µM; hits give high values
In the case of `COc1ccc(Br)c(C(=O)NCC2(N3CCCCC3)CCCCC2)c1`, the inhibition is reported as inactive: 13.3%.
In the case of `C=C(C)C#CC(O)(C(=O)OC1CCN(C)CC1)c1ccccc1` (stereo unspecified), the inhibition is reported as inactive: 7.62%.
With `CN(C)c1cccc(C(=O)NCC2(N(C)C)CCCCC2)c1` the inhibition was inactive: -3.49%.
With `CC(C)Oc1ccc(C(=O)NCC2(N(C)C)CCCCC2)cc1` the inhibition was inactive: 3.33%.
In the case of `O=C(OCCN1CCCC1)C(O)(c1ccccc1)c1ccccc1`, the inhibition is reported as inactive: 14.4%.
With `O=C(OC1CN2CCC1CC2)C(CO)(c1ccccc1)c1ccccc1` (stereo unspecified) the inhibition was inactive: -2.21%.
With `COc1cccc(C(=O)NCC2(N3CCCCC3)CCCCC2)c1` the inhibition was inactive: -2.69%.
For `COc1ccc(Cl)cc1C(=O)NCC1(N(C)C)CCCCC1`, the inhibition was inactive: 8.17%.
With `O=C(NCC1(N2CCCCC2)CCCCC1)c1cccc(Cl)c1` the inhibition was inactive: 4.56%.
For `CN(C)C1(CNC(=O)c2ccc(Br)cc2)CCCCC1`, the inhibition was inactive: 12.2%.
For `COc1cc(C(=O)NCC2(N(C)C)CCCCC2)c([N+](=O)[O-])cc1OC`, the inhibition was inactive: -6.97%.
For `C=CCN1CCN(CCOC(=O)C(O)(c2ccccc2)c2ccccc2)CC1`, the inhibition was inactive: 3.75%.
For `O=C(NCC1(N2CCCCC2)CCCCC1)c1cc(F)c(F)cc1Cl`, the inhibition was inactive: 19.6%.
With `CCN1CCCC(OC(=O)C2(O)c3ccccc3C=Cc3ccccc32)C1` (stereo unspecified) the inhibition was inactive: 4.18%.
With `Cc1cc(C(=O)NCC2(N3CCCCC3)CCCCC2)ccc1[N+](=O)[O-]` the inhibition was inactive: 20%.
With `O=C(NCC1(N2CCCCC2)CCCCC1)c1cccc(Br)c1` the inhibition was inactive: -7.53%.
With `COc1ccc(C(=O)NCC2(N(C)C)CCCCC2)cc1` the inhibition was inactive: -5.05%.
For `Cc1ccccc1C(=O)NCC1(N2CCCCC2)CCCCC1`, the inhibition was inactive: 7.86%.
In the case of `CN(C)c1ccc(C(=O)NCC2(N(C)C)CCCCC2)cc1`, the inhibition is reported as inactive: -14.1%.
In the case of `CN(C)C1CCCC1OC(=O)C(O)(c1ccccc1)c1ccccc1` (stereo unspecified), the inhibition is reported as inactive: -5.51%.
In the case of `CC(C)N1C(=O)CC2(CCN(CCOC(=O)C(O)(c3ccccc3)c3ccccc3)CC2)C1=O`, the inhibition is reported as inactive: -9.74%.
With `CCN(CC)CC(C)C(C)OC(=O)C(O)(c1ccccc1)c1ccccc1` (stereo unspecified) the inhibition was inactive: 2.95%.
With `COc1cc(SC)ccc1C(=O)NCC1(N(C)C)CCCCC1` the inhibition was inactive: -11.3%.
In the case of `Cc1ccc(C(=O)NCC2(N3CCCCC3)CCCCC2)cc1`, the inhibition is reported as inactive: 13.6%.
For `O=C(NCC1(N2CCCCC2)CCCCC1)c1cc([N+](=O)[O-])ccc1Cl`, the inhibition was inactive: 0.383%.
With `CN1[C@@H]2CC[C@H]1CC(OC(=O)C(O)(c1ccccc1)c1ccccc1)C2` (stereo partly specified) the inhibition was inactive: -2.18%.
